Experimental data taken from patent publication US7888386B2, “3-(phenoxyphenylmethyl)pyrrolidine compounds” (Theravance, Inc., priority 2008, dated 2011).
Where two headings read alike, the source gives them in different places.

Amino acid sequences for entries named in this document (tags omitted).
UniProt P23975, whole entry: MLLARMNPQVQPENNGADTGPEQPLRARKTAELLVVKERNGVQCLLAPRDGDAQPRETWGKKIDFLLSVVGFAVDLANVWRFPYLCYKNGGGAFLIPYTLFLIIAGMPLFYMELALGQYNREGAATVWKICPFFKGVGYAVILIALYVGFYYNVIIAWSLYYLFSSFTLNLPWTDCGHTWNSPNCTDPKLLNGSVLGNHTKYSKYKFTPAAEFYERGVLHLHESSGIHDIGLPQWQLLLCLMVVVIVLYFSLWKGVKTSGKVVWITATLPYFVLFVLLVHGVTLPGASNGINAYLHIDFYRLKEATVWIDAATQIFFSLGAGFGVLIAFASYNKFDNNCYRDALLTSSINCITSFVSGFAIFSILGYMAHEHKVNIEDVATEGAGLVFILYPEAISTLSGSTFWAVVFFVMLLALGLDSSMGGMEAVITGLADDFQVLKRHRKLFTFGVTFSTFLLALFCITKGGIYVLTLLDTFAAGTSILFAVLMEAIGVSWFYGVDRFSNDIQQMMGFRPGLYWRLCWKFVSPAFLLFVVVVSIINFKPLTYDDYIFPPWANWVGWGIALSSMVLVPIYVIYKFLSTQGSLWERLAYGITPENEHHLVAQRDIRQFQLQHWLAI
UniProt P31645, whole entry: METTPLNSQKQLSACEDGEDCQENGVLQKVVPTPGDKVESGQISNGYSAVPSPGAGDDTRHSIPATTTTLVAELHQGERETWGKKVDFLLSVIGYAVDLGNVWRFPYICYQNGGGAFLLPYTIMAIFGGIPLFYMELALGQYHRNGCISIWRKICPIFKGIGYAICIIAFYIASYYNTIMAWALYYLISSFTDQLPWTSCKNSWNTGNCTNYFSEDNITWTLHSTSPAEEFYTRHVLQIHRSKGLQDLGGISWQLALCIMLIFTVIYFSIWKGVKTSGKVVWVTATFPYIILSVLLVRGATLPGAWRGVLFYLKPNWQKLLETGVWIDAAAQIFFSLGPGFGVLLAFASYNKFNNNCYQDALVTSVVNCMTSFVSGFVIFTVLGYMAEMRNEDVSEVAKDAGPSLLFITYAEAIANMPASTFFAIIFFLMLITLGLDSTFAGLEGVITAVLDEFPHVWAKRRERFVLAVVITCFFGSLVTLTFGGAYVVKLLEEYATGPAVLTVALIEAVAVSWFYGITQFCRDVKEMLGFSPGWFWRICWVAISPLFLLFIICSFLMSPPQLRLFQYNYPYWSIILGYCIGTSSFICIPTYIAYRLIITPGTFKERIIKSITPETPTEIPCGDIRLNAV

Columns and labels:
[1] = target: hNET (Homo sapiens, UniProt P23975)
[2] = target: hSERT (Homo sapiens, UniProt P31645)
[3] = ratio of SERT Ki to NET Ki from binding assays
[4] = ratio of SERT Ki to NET Ki (binding)
[5] = membranes of HEK-293 cells expressing hNET, 1.0 nM 3H-nisoxetine
[6] = ratio of binding Ki at hSERT to Ki at hNET, rounded off to the nearest tenth

Compound: Fc1ccc(Cl)c(O[C@@H](c2ccccc2)[C@H]2CCNC2)c1
- NET pKi ([1]; hNET binding assay): 9
- SERT Ki/NET Ki [2, 3]: 32

Compound: Fc1cc(Cl)cc(O[C@@H](c2ccccc2)[C@H]2CCNC2)c1Cl
- NET pKi ([1]; hNET binding): 8.1
- SERT Ki/NET Ki [2, 4]: 0.5

Compound: COc1ccc(Cl)c(O[C@@H](c2ccccc2)[C@H]2CCNC2)c1F
- NET pKi ([1]; hNET binding): 9
- SERT Ki/NET Ki [2, 4]: 5

Compound: Clc1ccc([C@H](Oc2c(Cl)cccc2Cl)[C@H]2CCNC2)cc1 (relative stereo)
- NET pKi ([1]; hNET binding assay): 8.7
- SERT Ki/NET Ki [2, 3]: 1.6

Compound: Fc1c(Cl)ccc(Cl)c1O[C@H](c1ccccc1)[C@@H]1CCNC1
- NET pKi ([1]; hNET binding): 9.3
- SERT Ki/NET Ki [2, 4]: 0.5

Compound: Fc1cc(F)cc([C@H](Oc2c(F)cccc2Cl)[C@H]2CCNC2)c1
- NET pKi ([1]; hNET binding assay): 9.8
- SERT Ki/NET Ki [2, 3]: 50

Compound: Fc1c(Cl)ccc(Cl)c1O[C@@H](c1ccccc1)[C@H]1CCNC1
- NET pKi ([1]; hNET binding): 9.5
- SERT Ki/NET Ki [2, 4]: 3.2

Compound: Fc1cc(F)cc([C@@H](Oc2c(Cl)cccc2Cl)[C@@H]2CCNC2)c1
- NET pKi ([1]; hNET binding assay): 8.9
- SERT Ki/NET Ki [2, 3]: 2.5

Compound: Cc1cc(F)cc([C@@H](Oc2c(Cl)cccc2Cl)[C@H]2CCNC2)c1 (relative stereo)
- SERT Ki/NET Ki [2, 3]: 1.6

Compound: COc1ccccc1O[C@@H](c1ccc(C#N)cc1)[C@H]1CCNC1
- NET pKi [1, 5]: 8.6
- SERT Ki/NET Ki [2, 6]: 5

Compound: Cc1cccc(C(Oc2c(Cl)cccc2Cl)C2CCNC2)c1 (centres unmarked)
- NET pKi ([1]; hNET binding assay): 8.3
- SERT Ki/NET Ki [2, 3]: 2

Compound: NC(=O)c1ccc(C(Oc2c(Cl)cccc2Cl)C2CCNC2)cc1 (centres unmarked)
- NET pKi ([1]; hNET binding assay): 8.1
- SERT Ki/NET Ki [2, 3]: 1.3

Compound: COc1c(F)cc(F)cc1O[C@@H](c1ccccc1)[C@H]1CCNC1
- NET pKi ([1]; hNET binding): 8.3
- SERT Ki/NET Ki [2, 4]: 5

Compound: N#Cc1ccc([C@H](Oc2c(Cl)cccc2Cl)[C@H]2CCNC2)cc1
- NET pKi ([1]; hNET binding assay): 8.8
- SERT Ki/NET Ki [2, 3]: 1

Compound: Fc1cc(F)cc([C@@H](Oc2c(Cl)ccc(Cl)c2Cl)[C@@H]2CCNC2)c1
- NET pKi ([1]; hNET binding): 9.2
- SERT Ki/NET Ki [2, 4]: 0.3

Compound: Cc1cc(F)cc([C@H](Oc2c(Cl)cccc2Cl)[C@H]2CCNC2)c1 (relative stereo)
- NET pKi ([1]; hNET binding assay): 8.9
- SERT Ki/NET Ki [2, 3]: 1

Compound: Cc1ccc(Cl)cc1O[C@@H](c1ccccc1)[C@H]1CCNC1
- SERT Ki/NET Ki [2, 3]: 0.3

Compound: Fc1cc(F)cc([C@@H](Oc2c(Cl)cccc2Cl)[C@H]2CCNC2)c1 (relative stereo)
- NET pKi ([1]; hNET binding assay): 8.2
- SERT Ki/NET Ki [2, 3]: 1

Compound: Fc1cc(Cl)cc([C@H](Oc2c(Cl)cccc2Cl)[C@H]2CCNC2)c1 (relative stereo)
- NET pKi ([1]; hNET binding assay): 9.2
- SERT Ki/NET Ki [2, 3]: 3.2

Compound: COc1cccc(F)c1O[C@H](c1cc(F)cc(F)c1)[C@@H]1CCNC1
- NET pKi ([1]; hNET binding assay): 8.7
- SERT Ki/NET Ki [2, 3]: 1.6

Compound: Clc1cccc([C@H](Oc2c(Cl)cccc2Cl)[C@H]2CCNC2)c1 (relative stereo)
- NET pKi ([1]; hNET binding assay): 8.2
- SERT Ki/NET Ki [2, 3]: 1.3

Compound: COc1ccccc1O[C@@H](c1cccc(C#N)c1)[C@H]1CCNC1
- NET pKi [1, 5]: 9.1
- SERT Ki/NET Ki [2, 6]: 100

Compound: Clc1ccccc1C(Oc1c(Cl)ccc(Cl)c1Cl)C1CCNC1 (centres unmarked)
- NET pKi ([1]; hNET binding): 8.8
- SERT Ki/NET Ki [2, 4]: 0.2
